Source: patent publication US7868032B2

Protein sequences, listed by entry. Tags and fused reporters are not part of them.
UniProt P43088, whole entry: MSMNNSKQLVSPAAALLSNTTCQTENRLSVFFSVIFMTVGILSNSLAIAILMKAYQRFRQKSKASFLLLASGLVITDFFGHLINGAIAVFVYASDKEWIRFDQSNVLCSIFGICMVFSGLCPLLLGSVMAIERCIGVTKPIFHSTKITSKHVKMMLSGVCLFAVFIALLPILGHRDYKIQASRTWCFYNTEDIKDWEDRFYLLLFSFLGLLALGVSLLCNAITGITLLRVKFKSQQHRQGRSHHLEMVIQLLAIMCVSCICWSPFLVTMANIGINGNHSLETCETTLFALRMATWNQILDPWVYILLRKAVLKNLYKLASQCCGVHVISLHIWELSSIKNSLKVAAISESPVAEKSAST
UniProt Q13258, whole entry: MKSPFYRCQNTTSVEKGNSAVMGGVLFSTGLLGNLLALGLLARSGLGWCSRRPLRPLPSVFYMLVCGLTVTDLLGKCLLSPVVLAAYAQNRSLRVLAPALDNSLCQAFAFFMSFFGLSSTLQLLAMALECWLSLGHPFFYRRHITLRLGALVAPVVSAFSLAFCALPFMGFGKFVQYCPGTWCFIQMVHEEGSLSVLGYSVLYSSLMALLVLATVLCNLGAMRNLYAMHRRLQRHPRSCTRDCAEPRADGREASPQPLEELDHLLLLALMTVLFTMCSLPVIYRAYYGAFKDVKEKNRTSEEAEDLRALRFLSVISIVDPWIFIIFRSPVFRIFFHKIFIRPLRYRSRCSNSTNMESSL
UniProt P21731, whole entry: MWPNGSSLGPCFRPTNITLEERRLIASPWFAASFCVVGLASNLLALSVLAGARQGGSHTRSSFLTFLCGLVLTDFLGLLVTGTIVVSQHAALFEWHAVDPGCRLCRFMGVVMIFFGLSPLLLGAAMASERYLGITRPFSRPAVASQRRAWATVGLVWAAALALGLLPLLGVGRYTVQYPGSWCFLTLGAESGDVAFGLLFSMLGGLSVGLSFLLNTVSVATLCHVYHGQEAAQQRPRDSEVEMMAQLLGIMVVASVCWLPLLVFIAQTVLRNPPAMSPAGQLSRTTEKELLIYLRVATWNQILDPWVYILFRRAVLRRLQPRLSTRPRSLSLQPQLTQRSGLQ
UniProt P35408, whole entry: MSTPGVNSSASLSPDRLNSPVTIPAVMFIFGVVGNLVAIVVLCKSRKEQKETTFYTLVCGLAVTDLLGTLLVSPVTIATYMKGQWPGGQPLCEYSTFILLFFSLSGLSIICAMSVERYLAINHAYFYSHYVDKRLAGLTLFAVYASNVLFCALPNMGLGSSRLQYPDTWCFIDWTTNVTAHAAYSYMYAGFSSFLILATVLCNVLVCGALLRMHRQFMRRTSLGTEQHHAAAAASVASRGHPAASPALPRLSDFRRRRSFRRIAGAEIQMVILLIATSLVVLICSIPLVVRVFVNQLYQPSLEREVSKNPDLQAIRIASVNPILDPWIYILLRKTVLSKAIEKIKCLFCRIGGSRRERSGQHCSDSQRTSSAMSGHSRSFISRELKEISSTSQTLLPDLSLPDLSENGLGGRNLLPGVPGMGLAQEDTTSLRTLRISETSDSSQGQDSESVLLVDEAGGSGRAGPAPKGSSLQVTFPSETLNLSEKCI

Experiments:
[1] = system: Pamide (prostamide receptor), Cat Iris; test: Feline iris sphincter contraction, antagonism of prostamide; details: read-out: Kb Pamide Cat Iris; isolated feline iris; antagonist given 30 minutes before agonist curve; NA = inactive
Procedure: (§1) The test systems employed included the isolated feline iris as a key preparation since both prostamides (prostaglandin ethanolamides) and prostanoid FP receptor agonists potently elicit a contractile response in this tissue (Woodward et al., 2003; Matias et al., 2004). Activity at human prostanoid receptors was determined using recombinant receptors stably transfected into HEK-293 EBNA cells, using chimeric G proteins to enable Ca^2+ signal responses to all receptor subtypes, as previously described (Woodward et al., 2003: Matias et al, 2004)
(§2) Claas A laboratory bred cats were housed communally in USDA and AAALAC approved facilities, with standards that exceeded those for enrichment and group housing. Water was available ad libitum and food was standard cat nutritional diet. They were kept on a 12 hr light-dark cycle. They (96) were euthanized by i.v. overdose of sodium pentobarbital (Anthony, Arcadia, Calif.). The eyes were enucleated immediately thereafter and placed on ice. Two eyes provided a total of four iridial preparations. The iris sphincter was mounted vertically under 50- to 100 mg tension in a jacketed 10 ml organ bath. Smooth muscle tension of the isolated iris sphincter was measured isometrically with force displacement transducers (Grass FT-03) and recorded on a Grass polygraph (Model 7). The organ baths contained Krebs' solution maintained at 37° C. by a heat exchanger and circulating pump. […] Activity was manifest as contractile responses and measured as such. […]
The feline iris experiments were designed so that a direct, four-way comparison for antagonist vs. prostamide, vehicle vs. prostamide, antagonist vs. corresponding PG, and vehicle vs. corresponding PG was provided in tissue preparations obtained from a single animal. […] The response to PGF2α10^−7M was determined at the beginning and end of each dose response curve, with appropriate wash-out, and responses were calculated as % of this reference contraction.

[2] = target: human recombinant FP receptor (Homo sapiens, UniProt P43088); test: Ca2+ signal (FLIPR), human recombinant FP receptor in HEK-293 EBNA cells; details: for Kb: read-out: Kb FP (h FP), value in brackets, NA = inactive
Procedure: as §1
(§3) The use of chimeric G protein cDNAs allowed responses to Gs and Gi coupled prostanoid receptors to be measured as a Ca^2+ signal, as previously described (Woodward et al., 2003; Matias et al., 2004). Prostanoid DP, EP2, and EP4 receptor cDNAs were co-transfected with chimeric Gqs cDNA containing a haemagglutanin (HA) epitope. The prostanoid EP3 receptor was co-transfected into HEK-293 EBNA cells, using pCEP4 as a vector, with chimeric Gqi-HA. Gqs and Gqi chimeric cDNAs (Molecular Devices, Sunnyvale, Calif.) were cloned into a pCEP4 vector and also selected by using a hygromycin B selection marker. Transfection into HEK-293 EBNA cells was achieved by the FuGENE 6 method. Because Gqs and Gqi contained an HA epitope, protein expression was detected by Western blotting analysis using anti-mouse HA monoclonal antibody and HRP conjugated secondary antibody. For human recombinant EP1, FP, IP, and TP receptors, stable transfectants were obtained as previously described (Woodward et al., 2003; Matias et al., 2004). […]
(§4) Ca^2+ signaling studies were performed using a FLIPR (fluorometric imaging plate reader) instrument. […] Cells were excited with an argon laser at 488 nm and emission was measured through a 510-570 nm band width emission filter (FLIPR, Molecular Devices, Sunnyvale, Calif.). The peak increase in fluorescence intensity was recorded for each well.
(§5) The experimental design for the FLIPR studies was as follows. […] The peak fluorescence change in each well containing drug was expressed relative to the controls. […]

[3] = target: human recombinant DP receptor (Homo sapiens, UniProt Q13258); test: Ca2+ signal (FLIPR), human recombinant DP receptor in HEK-293 EBNA cells; details: read-out: Kb DP h, NA = inactive
Procedure: as §1
(§6) The use of chimeric G protein cDNAs allowed responses to Gs and Gi coupled prostanoid receptors to be measured as a Ca^2+ signal, as previously described (Woodward et al., 2003; Matias et al., 2004). Prostanoid DP, EP2, and EP4 receptor cDNAs were co-transfected with chimeric Gqs cDNA containing a haemagglutanin (HA) epitope. […] Because Gqs and Gqi contained an HA epitope, protein expression was detected by Western blotting analysis using anti-mouse HA monoclonal antibody and HRP conjugated secondary antibody. […]
as §4, with “well. […]” for “well.”

[4] = target: human recombinant TP receptor (Homo sapiens, UniProt P21731); test: Ca2+ signal (FLIPR), human recombinant TP receptor in HEK-293 EBNA cells; details: read-out: Kb TP h, NA = inactive
Procedure: as §1, §3, §4, §5

FP receptor, Cat Iris = test: Feline iris sphincter contraction, antagonism of corresponding PG (FP); details: isolated feline iris, value outside brackets, NA = inactive
Procedure: as §1
as §2, with “7).” for “7). The organ baths contained Krebs' solution maintained at 37° C. by a heat exchanger and circulating pump.”

[5] = target: human recombinant EP4 receptor (Homo sapiens, UniProt P35408); test: Ca2+ signal (FLIPR), human recombinant EP4 receptor in HEK-293 EBNA cells; details: read-out: Kb EP4 h, NA = inactive
Procedure: as §1, §6
as §4, with “well. […]” for “well.”

Row | Kb [2] [µM] | Kb [3] [µM] | Kb [4] [µM] | SMILES | Kb [1] [µM] | Kb FP Cat Iris (FP receptor, Cat Iris) | Kb FP (h FP) ([2]; value in brackets, NA = inactive) | Kb [5] [µM] | Kb (FP receptor, Cat Iris; read-out: Kb FP Cat Iris) [µM]
1 | 13.1 | 40.9 | 0.111 | CC(C)NC(=O)COc1ccc(F)cc1CC1C2CCC(O2)C1c1nc(C(=O)NCCCCC2CCCCC2)co1 (centres unmarked) | 0.303 |  |  |  | 
2 | 33.6 |  | 0.1 | CCCNC(=O)COc1ccc(F)cc1CC1C2CCC(O2)C1c1nc(C(=O)NCCCCC2CCCCC2)co1 (centres unmarked) | 0.356 |  |  | 9.05 | 54

Row | SMILES | Kb [2] [µM] | Kb [3] [µM] | Kb [4] [µM] | Kb [1] [µM] | Kb FP Cat Iris (FP receptor, Cat Iris) | Kb FP (h FP) ([2]; value in brackets, NA = inactive) | Kb [5] [µM] | Kb (FP receptor, Cat Iris; read-out: Kb FP Cat Iris) [µM]
3 | CCNC(=O)COc1ccc(F)cc1CC1C2CCC(O2)C1c1nc(C(=O)NCCCCC2CCCCC2)co1 (centres unmarked) |  |  | 0.016 | 0.236 | NA(NA) | NA(NA) | 37 | 
